Measurements: US20240108738A1, “BICYCLIC PEPTIDE LIGANDS SPECIFIC FOR NK CELLS” (Bicycle Tx Limited, priority 2021, published 2024)

By UniProt entry, the sequences of proteins in these tests, tags left out. Chains listed by the source or under a name are the forms on record and can include a tag or linker. Residues count along the entry.
Human NKp46 Fc tag (Acro Biosystems, NC1-H5257) (human), O76036, UniProt O76036, 22-255 limits assumed: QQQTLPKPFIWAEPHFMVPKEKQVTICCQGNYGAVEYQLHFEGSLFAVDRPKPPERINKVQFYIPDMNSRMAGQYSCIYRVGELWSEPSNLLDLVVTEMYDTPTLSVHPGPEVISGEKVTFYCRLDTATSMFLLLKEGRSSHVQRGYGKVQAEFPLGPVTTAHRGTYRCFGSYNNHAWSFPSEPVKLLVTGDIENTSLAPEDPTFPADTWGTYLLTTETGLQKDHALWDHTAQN

Molecular target: Human NKp46 Fc tag (Acro Biosystems, NC1-H5257) (human), O76036
Experiment: SPR Method 1 and/or 2

Kd | Binder
1740 nM | ACNLQQPCMLTGKVCA (modifications not checked) [BCY19708]
1740 nM | ACALTTHNCQWGICA (modifications not checked) [BCY18263]
1070 nM | ACNLQAPCMQTGKVCA (modifications not checked) [BCY15098]
3180 nM | CDLTTHNCQWGIC (modifications not checked) [BCY18262]
